ClpP mod – qHTS Assay for Activators of ClpP | ATP-dependent Clp protease proteolytic subunit (Bacillus subtilis (strain 168)), P80244 | purified B. subtilis ClpP, FRET peptide cleavage, 20 min | 340,000 compounds, 1.9% hits | Potency, µM (highest dose often 57.5 µM); active = well fitted falling curve with a large enough effect; inconclusive = small, poorly fitted or top-dose-only effect; inactive = no such curve, though single readings can be large or run the other way; note: the source files actives as falling curves though it sought activators and does not explain the sign; nearly all actives have a fitted effect of over 65% in size
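ClpP 10 microg/mL final, pH 8 Tris/KCl buffer with BSA, glycerol, Tween-20; compound pinned in; FRET-FV substrate; RT 20 min; Ex320/Em430; ΔFRET vs ADEP 5.8 microM, DMSO, no enzyme.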
Nrf2 block – blocks Nrf2 signaling | A549 ARE-Fluc reporter, luciferase luminescence, 18-24 h | 360,000 compounds, 2.1% hits | Potency, µM (doses to about 46 µM), usual class: inhibitors | AID 504444; note: nearly all actives have a fitted effect of over 60% in size
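Nrf2 function is reported as luminescence of an ARE-controlled luciferase in A549 cells. Compounds were tested at several concentrations, and a CellTiter-Fluor read on the same wells flagged cytotoxicity.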
miR-21 reporter – raises the signal of a miR-21 reporter; Potency, µM (doses to about 38.3 µM); HeLa miR-21 FLuc reporter, luciferase, 48 h; AID 2288; 340,000 tested, under 10 active; active = well fitted rising curve with a large enough effect; inconclusive = small, poorly fitted or top-dose-only effect; inactive = no such curve, though single readings can be large or run the other way;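 further: miR-21 action dims this reporter so a rising signal means less miR-21 action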
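Compounds were titrated across several concentrations (up to approximately 40 uM) and incubated 48 hours with HeLa miR-21-FLuc reporter cells (miR-21 target sequence downstream of FLuc, endogenous miR-21). Readout was firefly luciferase luminescence after lytic detection reagent.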
p53 reactivation – restores transcriptional activity of mutant p53 | H1299 p53-A138V BP100-luciferase reporter, luminescence, 24 h | 320,000 compounds, 0.063% hits | Potency, µM (series often up to 92.2 µM), hits mostly activators; note: nearly all actives have a fitted effect of over 45% in size
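p53-null H1299 cells stably carrying temperature-sensitive p53-A138V and a BP100-luciferase reporter were pinned with compounds (4-point, 1:5 series) and held 24 hrs at 37 deg C. Luminescence was read 10 min after detection reagent.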
Nrf2 ARE act – activators of Nrf2 (ARE) signaling | AREc32 ARE-luciferase reporter (MCF7-derived line), luminescence, 24 h | Potency, µM (highest dose often 46.1 µM), most hits filed as activators | 410,000 compounds, 0.31% hits; note: nearly all actives have a fitted effect of over 65% in size
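ARE activation measured as luciferase luminescence (Steady-Glo, 30 min RT) in AREc32_Fluc cells after 24 hr compound exposure at 37 deg C, 5% CO2; cells seeded overnight at 1000/well in OPTI-MEM, 5% FBS.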
A549 tox – A549 cytotoxicity, counter-screen for Nrf2 inhibitors. A549 ARE-Fluc cells, CellTiter-Fluor viability, 18-24 h. Potency, µM (titrated, usually from 46 µM), usual class: inhibitors. 390,000 compounds, 0.16% hits
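A549 ARE_Fluc cells in 5% FBS OPTI-MEM were exposed to compounds in concentration-response for 18-24 h at 37 deg C. Viability was read by CellTiter-Fluor fluorescence (Ex 405/Em 525) after 30 min, before the luciferase read.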
Numbers stand for hits; - = inactive; ? = inconclusive; . = no result; [ ] = dose if it differs, or a comment. This is a sample that favours compounds with a hit; in the whole collection about 3.7% have one here. Unless noted, calls come from the whole dose curve; as a rule, active = well fitted curve in the direction sought with a large enough effect; inconclusive = small, poorly fitted or top-dose-only effect, or another doubt; inactive = no such curve, though single readings can be large; an effect the other way counts as inactive or inconclusive.

SMILES | ClpP mod | Nrf2 block | miR-21 reporter | p53 reactivation | Nrf2 ARE act | A549 tox
CCCc1nc(N2CCCC2)c(C#N)c2c1CCCC2 | 32µM | - | - | - | - | -
CCc1nc(N2CCOCC2)c(C#N)c2c1CCCC2 | - | - | - | - | - | -
CC(C)c1nc(N2CCCC2)c(C#N)c2c1CCCC2 | 28µM | ? | - | - | - | -
CCc1nc(N2CCCC2)c(C#N)c2c1CCCC2 | 20µM | - | - | - | - | -
Cc1sc2ncn(CC(=O)N3CCN(c4ccc(Cl)cc4)CC3)c(=O)c2c1S(=O)(=O)N1CCN(c2ncccn2)CC1 | - | -[9.27 µM] | - | . | - | -
COc1ccc(-c2nc3ccccc3c(=O)n2Cc2ccc(CNC(=O)CO)cc2)cc1COc1ccc(NC(C)=O)cc1 | . | ? | . | . | . | -
COc1ccc2cc(C#N)c(NC(C)C)nc2c1 | 22µM | ? | - | ? | - | -
O=C(CSCc1cccc(Cl)c1)N/N=C/c1ccc(OCC(=O)N2CCCCC2)cc1 | - | 18µM | - | - | - | -
Cc1cc(C)cc(CSCC(=O)N/N=C/c2ccc(OCC(=O)NCc3ccco3)cc2)c1 | - | 15µM | - | - | - | -
COc1ccc(CSCC(=O)N/N=C/c2ccc(OCC(=O)NCc3ccco3)cc2)cc1 | - | ? | - | - | - | -
CC(NC(=O)CSc1nc(-c2ccccc2F)nc2cc(=O)[nH]n12)c1nc2ccccc2n1C (stereo not given) | ? | - | - | . | - | -
CC(C1=C(CCN(C)C)Cc2ccccc21)c1ccccn1 (stereo not given) | 32µM | - | . | . | - | -
CCN(CC)CCNC(=O)C1CCN(c2nn3cc(-c4ccc(F)cc4)nc3s2)CC1 | - | - | - | . | - | -
Cc1cc(F)ccc1NC(=O)CCn1nc(C)c(S(=O)(=O)N2CCCCC2)c1C | - | . | - | . | - | -
Cc1cc(C)n2nc(C(=O)N3CCCC(N4CCN(c5ccccc5C)CC4)C3)cc2n1 (stereo not given) | 28µM | - | - | . | - | -
COc1cccc(N=c2oc3ccccc3cc2-c2nc3ccccc3[nH]2)c1 | - | ? | - | ? | - | -
COc1cccc(N=c2oc3ccc(OC)cc3cc2-c2nc3ccccc3[nH]2)c1 | - | ? | - | . | - | 13µM
COc1ccc2[nH]c(=O)c(CN(CCc3ccccc3)Cc3nnnn3CC3CCCO3)cc2c1 (stereo not given) | 25µM | - | - | - | - | -
Cc1ccc2[nH]c(=O)c(CN(CCc3ccccc3)Cc3nnnn3CC3CCCO3)cc2c1 (stereo not given) | - | - | - | - | - | -
CCOc1ccc2[nH]c(=O)c(CN(CCO)Cc3nnnn3CCc3ccccc3)cc2c1 | 32µM | - | - | - | - | -
O=c1[nH]c2cc3c(cc2cc1CN(CCc1ccccc1)Cc1nnnn1CC1CCCO1)OCO3 (stereo not given) | 25µM | - | - | - | - | -
Cc1ccc2[nH]c(=O)c(CN(CCO)Cc3nnnn3Cc3ccccc3)cc2c1 | - | - | . | . | . | -
CCCN(CCC)Cc1cc(=O)oc2cc(C)cc(C)c12 | - | . | . | . | - | .
CCN(C(=O)CSc1nc2ccccc2n1CC(=O)Nc1cccc(C#N)c1)c1ccccc1 | ? | . | - | . | - | -
CC(C)[C@H](NC(=O)c1ccc(C(C)(C)C)cc1)C(=O)N1CCN(Cc2ccc3c(c2)OCO3)CC1 | . | 21µM | . | - | - | ?
SMILES | ClpP mod | Nrf2 block | miR-21 reporter | p53 reactivation | Nrf2 ARE act | A549 tox
CCOc1ccc(CCNC(=O)c2cnc3sc(N4CCC(C)CC4)nn3c2=O)cc1 | - | ? | - | . | - | -
CCN(CCCNC(=O)c1cc2cc3cc(OC)ccc3nc2s1)c1cccc(C)c1 | - | 26µM | - | . | - | -
CCN(CCCNC(=O)c1cc2cc3ccc(C)cc3nc2s1)c1ccccc1 | - | - | - | . | - | -
CCOC(=O)c1cccc(NC(=O)c2cc3cc4cc(OC)ccc4nc3s2)c1 | - | 23µM | - | . | - | ?
Clc1cccc(Cl)c1/C=N\Nc1nccs1 | - | - | - | - | 10µM | -
Cc1ccc(NC(=O)CSc2nc(-c3cccs3)cc(C(F)(F)F)n2)cc1C | - | - | - | . | - | -
Cc1cc(=O)n2c3ccccc3n(CC(O)CN3CCCCC3)c2c1C#N (stereo not given) | 28µM | ? | - | - | - | ?
O=c1[nH]c(-c2ccccc2)c(-c2ccccc2)nc1[N+](=O)[O-] | - | - | - | - | - | -
Cc1cc(NS(=O)(=O)c2ccc(NC(=O)c3ccccc3F)cc2)no1 | - | ? | . | - | - | -
COc1ccccc1C(=O)Nc1ccc(S(=O)(=O)Nc2cc(C)on2)cc1 | 25µM | - | - | - | - | -
CCOc1ccc(C(=O)N2CCC(c3nc(-c4ccc(S(=O)(=O)N5CCCC5)cc4)no3)CC2)cc1 | - | 13µM | ? | . | - | -
O=C(CC1CCCCC1)N1CCCC(c2nc(-c3ccc(S(=O)(=O)N4CCCC4)cc3)no2)C1 (stereo not given) | - | ? | - | - | - | -
COc1ccc(C(=O)N2CCC(c3nc(-c4ccc(S(=O)(=O)N5CCCC5)cc4)no3)CC2)cc1 | - | 21µM | - | . | - | ?
CCN(CCC#N)c1ccc(/C=C/c2ccnc3ccccc23)cc1 | - | . | . | . | . | .
O=C(Nc1ccc2c(c1)OCCO2)C1C(=O)Nc2ccccc2C(=O)N1C1CCCCC1 (stereo not given) | - | . | . | . | . | .
CC(=O)Nc1ccc(C2Nc3ccccc3C(=O)N2C2CCCCC2)cc1 (stereo not given) | 28µM | - | - | - | - | -
CN(CCC#N)c1ccc(/C=C/c2ccnc3ccccc23)cc1 | - | . | . | . | . | .
C=CCc1cc(F)c(S(=O)(=O)N2CCN(S(=O)(=O)c3ccc4c(c3)OCCO4)CC2)cc1F | . | - | . | . | . | -
c1ccc(-c2cc(-c3nc4ccccc4[nH]3)c3ccccc3n2)cc1 | 18µM | ? | - | - | - | -
Nc1ccc(-c2nc3ccccc3[nH]2)cc1 | - | ? | - | . | - | -
Cn1cc(-c2nc3ccccc3[nH]2)c2ccccc21 | 28µM | ? | - | ? | - | -
Cc1c(-c2nc3ccccc3[nH]2)cnn1C | - | - | . | ? | - | -
Cc1cc(N2CCC(C(=O)Nc3ccc(Cl)cc3)CC2)n2nc(C)c(-c3ccc(Cl)cc3)c2n1 | - | - | - | . | - | -
COc1ccc(S(=O)(=O)c2cnc3ccccc3n2)cc1 | . | - | - | - | 18µM | -
COc1ccc(CCc2nc(-c3ccc(-n4cccc4)cc3)no2)cc1 | ? | 16µM | - | - | - | -
CCCc1ccc(OC(C)c2nc(-c3ccc(-n4cccc4)cc3)no2)cc1 (stereo not given) | ? | 23µM | - | . | - | -

Screens as filed in PubChem.
